The record followed here is ChEMBL document CHEMBL1144273, “Synthesis and SAR studies of 3-phenoxypropyl piperidine analogues as ORL1 (NOP) receptor agonists” (Bioorg Med Chem Lett, 2005).

Amino acid sequences for entries named in this document (tags omitted).
UniProt P35372, whole entry: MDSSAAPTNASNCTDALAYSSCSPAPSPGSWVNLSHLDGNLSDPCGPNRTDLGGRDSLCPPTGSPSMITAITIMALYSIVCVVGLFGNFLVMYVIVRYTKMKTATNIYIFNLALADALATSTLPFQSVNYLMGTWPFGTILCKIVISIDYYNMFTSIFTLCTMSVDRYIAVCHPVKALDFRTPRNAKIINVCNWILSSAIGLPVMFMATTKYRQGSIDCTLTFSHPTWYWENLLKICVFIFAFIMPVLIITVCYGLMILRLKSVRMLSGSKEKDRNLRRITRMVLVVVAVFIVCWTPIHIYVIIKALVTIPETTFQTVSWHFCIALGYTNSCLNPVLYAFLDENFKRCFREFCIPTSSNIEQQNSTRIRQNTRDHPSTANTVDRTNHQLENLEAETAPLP
UniProt P41146, whole entry: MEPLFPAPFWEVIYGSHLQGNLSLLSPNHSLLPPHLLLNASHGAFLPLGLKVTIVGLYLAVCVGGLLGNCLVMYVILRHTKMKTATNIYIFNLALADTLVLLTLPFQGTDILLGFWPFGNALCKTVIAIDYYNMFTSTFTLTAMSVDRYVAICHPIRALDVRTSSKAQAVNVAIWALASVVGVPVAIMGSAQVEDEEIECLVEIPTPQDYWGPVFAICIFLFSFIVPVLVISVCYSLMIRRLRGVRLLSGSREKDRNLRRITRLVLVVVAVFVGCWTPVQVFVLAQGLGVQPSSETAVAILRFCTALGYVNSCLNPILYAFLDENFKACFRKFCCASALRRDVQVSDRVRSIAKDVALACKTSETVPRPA

Molecules are shown by their SMILES.

For one test, the target named is Mu-type opioid receptor (Homo sapiens, UniProt P35372). Nature of the test: Binding affinity towards human opioid receptor mu 1 was determined by using [3H]diprenorphine as radioligand expressed in Chinese hamster ovary (CHO) cells.
`Cc1ccc(Cl)c(OC(CCN2CCC(n3c(O)nc4ccccc43)CC2)c2ccccc2)c1` (stereo not given): the inhibition constant (Ki) came out at 16.7 nM.

As to `CCCC(Oc1cc(C)ccc1Cl)C(O)CN1CCC(n2c(=O)[nH]c3ccccc32)CC1` (stereo not given), affinity was put at a Ki of 27 nM.

As to `Cc1ccccc1OC(CCN1CCC(n2c(O)nc3ccccc32)CC1)C(C)C` (stereo not given), the affinity corresponds to a Ki of 21 nM.

Consider `CC(C)C(CCN1CCC(n2c(O)nc3ccccc32)CC1)Oc1ccccc1C(F)(F)F` (stereo not given), for which the Ki stood at 24 nM.

In turn, `CC(C)c1ccccc1OC(CCN1CCC(n2c(=O)[nH]c3ccccc32)CC1)C(C)C` (stereo not given) showed a Ki of 20 nM.

The compound `CCc1ccccc1OC(CCN1CCC(n2c(=O)[nH]c3ccccc32)CC1)C(C)C` (stereo not given) had an inhibitory constant (Ki) of 23 nM.

For a further test, the target named is T1, Nociceptin receptor (Homo sapiens, UniProt P41146). As to the kind of experiment: Binding affinity towards human opioid receptor like 1 was determined by using [3H]nociceptin as radioligand expressed in Chinese hamster ovary (CHO) cells.
Take `Cc1ccc(Cl)c(OC(CCN2CCC(n3c(O)nc4ccccc43)CC2)c2ccccc2)c1` (stereo not given): the Ki was 8.3 nM.

Compound `CCCC(Oc1cc(C)ccc1Cl)C(O)CN1CCC(n2c(=O)[nH]c3ccccc32)CC1` (stereo not given) returned a Ki of 20 nM.

`Cc1ccccc1OC(CCN1CCC(n2c(O)nc3ccccc32)CC1)C(C)C` (stereo not given): the inhibition constant (Ki) was determined as 42 nM.

Regarding `CC(C)C(CCN1CCC(n2c(O)nc3ccccc32)CC1)Oc1ccccc1C(F)(F)F` (stereo not given), the affinity corresponds to a Ki of 24 nM.

On to `CC(C)c1ccccc1OC(CCN1CCC(n2c(=O)[nH]c3ccccc32)CC1)C(C)C` (stereo not given), for which the inhibition constant Ki was determined as 113 nM.

Take `CCc1ccccc1OC(CCN1CCC(n2c(=O)[nH]c3ccccc32)CC1)C(C)C` (stereo not given): affinity was put at a Ki of 37 nM.

In the next test the target is T1, Nociceptin receptor. As to the kind of experiment: Inhibitory concentration measured by cellular decreases in forskolin stimulated cAMP in CHO cells stably transfected with hORL1 receptor.
Consider `Cc1ccc(Cl)c(OC(CCN2CCC(n3c(O)nc4ccccc43)CC2)c2ccccc2)c1` (stereo not given), for which the half-maximal inhibitory concentration (IC50) came out at 240 nM.

Compound `CCCC(Oc1cc(C)ccc1Cl)C(O)CN1CCC(n2c(=O)[nH]c3ccccc32)CC1` (stereo not given) had an IC50 of 1060 nM.

The compound `CC(C)C(CCN1CCC(n2c(O)nc3ccccc32)CC1)Oc1ccccc1C(F)(F)F` (stereo not given) yielded a 50% inhibitory concentration (IC50) of 1730 nM.
